Consider seven substances from PMC4420714 (Peptides, 2015).

Sequences of proteins named here, by UniProt entry; tags and fusion partners are left off. Residues count along the entry.
UniProt P32241, 31-457: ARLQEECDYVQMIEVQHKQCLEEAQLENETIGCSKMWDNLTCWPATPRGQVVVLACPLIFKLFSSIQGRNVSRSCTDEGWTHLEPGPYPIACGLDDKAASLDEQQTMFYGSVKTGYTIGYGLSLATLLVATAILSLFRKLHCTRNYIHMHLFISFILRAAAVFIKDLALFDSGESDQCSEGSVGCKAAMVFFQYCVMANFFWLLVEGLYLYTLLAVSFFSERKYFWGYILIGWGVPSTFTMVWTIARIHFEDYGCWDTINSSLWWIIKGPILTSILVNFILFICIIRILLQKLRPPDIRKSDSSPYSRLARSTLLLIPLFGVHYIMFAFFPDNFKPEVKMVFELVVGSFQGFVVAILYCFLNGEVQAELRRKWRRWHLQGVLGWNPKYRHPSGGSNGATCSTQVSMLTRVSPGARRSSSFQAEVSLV

The IC50 is the concentration at which inhibition is half-maximal.

For assay [1], the target named is T1, VPAC2-R (Homo sapiens, UniProt P41587).
T1 sequence (P41587 24-438): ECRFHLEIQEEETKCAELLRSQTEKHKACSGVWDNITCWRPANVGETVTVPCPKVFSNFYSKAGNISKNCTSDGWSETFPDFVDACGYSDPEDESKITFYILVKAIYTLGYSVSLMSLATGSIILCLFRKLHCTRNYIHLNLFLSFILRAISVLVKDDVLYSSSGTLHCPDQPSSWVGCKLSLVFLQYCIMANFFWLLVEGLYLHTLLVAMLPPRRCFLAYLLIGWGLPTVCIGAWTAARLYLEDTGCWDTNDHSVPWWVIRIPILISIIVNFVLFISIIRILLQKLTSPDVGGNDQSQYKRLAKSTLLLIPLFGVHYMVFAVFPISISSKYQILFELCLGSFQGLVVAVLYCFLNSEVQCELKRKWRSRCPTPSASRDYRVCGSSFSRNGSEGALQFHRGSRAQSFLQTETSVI
Type of assay: binding. Conditions: read-out: IC50 VPAC2-R, Sup-T1; Sup-T1 cells, 75 pM 125I-Ro 25-1553, 37°C.

For assay [2], the target named is T1, VPAC2-R. The assay can be described thus: [3H]cAMP generation in VPAC2-R/PANC-1 cells. As to conditions: read-out: [3H]cAMP VPAC2-R/PANC-1 EC50. The class given is cell-based.
Assay [3] deals with T2, PAC1-R (Homo sapiens, UniProt P41586).
T2 sequence (P41586 21-468): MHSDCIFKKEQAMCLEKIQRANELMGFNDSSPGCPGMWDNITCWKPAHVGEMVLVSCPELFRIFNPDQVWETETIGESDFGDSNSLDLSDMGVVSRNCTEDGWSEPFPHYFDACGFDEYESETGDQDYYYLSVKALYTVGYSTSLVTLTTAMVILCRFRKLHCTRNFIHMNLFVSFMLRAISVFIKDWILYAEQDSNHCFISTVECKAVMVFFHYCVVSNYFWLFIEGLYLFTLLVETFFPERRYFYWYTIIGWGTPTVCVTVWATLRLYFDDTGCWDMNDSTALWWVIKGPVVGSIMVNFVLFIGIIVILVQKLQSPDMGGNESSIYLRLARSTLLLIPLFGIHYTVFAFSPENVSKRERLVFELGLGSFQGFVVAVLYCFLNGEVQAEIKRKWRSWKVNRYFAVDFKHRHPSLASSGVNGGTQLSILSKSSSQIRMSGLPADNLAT
Briefly: Binding of 125I-PACAP27 to PAC1-R stably transfected NIH 3T3 cells. Conditions: for higher affinity (selectivity) for PAC1-R cells over VPAC2-R/PANC-1 cells: IC50 VPAC2-R/PANC-1 divided by IC50 PAC1-R; for lower affinity for PAC1-R cells than VPAC1-R/PANC-1 cells: VPAC1-R preferring; for decrease in affinity for PAC1-R cells compared to native PACAP38 (or PACAP27): ratio of binding IC50, analog vs native parent peptide.

For assay [4], the target named is T2, PAC1-R. Briefly: [3H]cAMP generation in PAC1-R cells. Type of assay: cell-based. As to conditions: for higher potency for PAC1-R cells compared to VPAC1-R/PANC-1 cells / higher potency for PAC1-R cells compared to VPAC2-R/PANC-1 cells: cAMP generation EC50 ratio; for EC50: read-out: [3H]cAMP PAC1-R EC50; for [3H]cAMP PAC1-R % max (agonist class): relative to maximal stimulation by PACAP38, up to 1 µM.

Assay [5] addresses T3, VPAC1-R (Homo sapiens, UniProt P32241). Briefly: [3H]cAMP generation in T47D cells. Type of assay: cell-based. Conditions: T47D cells; for EC50: read-out: [3H]cAMP T47D EC50.
In assay [6] the target is T3, VPAC1-R. The assay can be described thus: [3H]cAMP generation in VPAC1-R/PANC-1 cells. As to conditions: for greater affinity than potency for stimulating cAMP generation, VPAC1-R/PANC-1 cells: EC50 cAMP over binding IC50; for EC50: read-out: [3H]cAMP VPAC1-R/PANC-1 EC50. Type of assay: cell-based.
The target in assay [7] is T3, VPAC1-R. The assay can be described thus: Binding of 125I-VIP to VPAC1-R/PANC-1 cells. As to conditions: ratio of binding IC50, analog vs native parent peptide.

Values joined by “and” are separate entries in the source; they are usually repeats but may differ in a detail not shown here. Equal values may be shown once. “Also recorded” adds a separate entry of the source. Read-outs that look alike come from different tables or passages of the source. A value given as a limit tells only on which side of the number the result lay.

In the case of “[Ala^16,17,D-Lys^38]PACAP38 [Peptide P23]”, the IC50 in assay [1] turned out to be 5.62 ± 0.28 nM. Moreover, the EC50 was found to be 5.37 ± 0.36 nM in assay [2] (VPAC2-R/PANC-1 cells), 0.35 ± 0.02 nM in assay [4] (PAC1-R cells), 12.9 ± 1 nM in assay [5] and 3.8 ± 0.33 nM in assay [6] (VPAC1-R/PANC-1 cells). In addition, in assay [3] (IC50 VPAC1-R/PANC-1 divided by IC50 PAC1-R, binding), the “higher affinity (selectivity) for PAC1-R cells over VPAC1-R/PANC-1 cells” value is “minimal to no selectivity”. Further, the “higher affinity (selectivity) for PAC1-R cells over VPAC2-R/PANC-1 cells” value in assay [3] (binding) was 2 fold. Further, in assay [3] (binding IC50 ratio), the “lower affinity for PAC1-R cells than VPAC1-R/PANC-1 cells” value is recorded as 6–10 fold. Further, the “decrease in affinity for PAC1-R cells compared to native PACAP38 (or PACAP27)” value (“decrease in affinity for PAC1-R cells” below) in assay [3] is 4–5 fold. For the same substance, in assay [4], the “higher potency for PAC1-R cells compared to VPAC1-R/PANC-1 cells” value is given as 6–15 fold. Moreover, in assay [4], the “higher potency for PAC1-R cells compared to VPAC2-R/PANC-1 cells” value is recorded as 7-to-15 fold. Moreover, the “greater affinity than potency for stimulating cAMP generation, VPAC1-R/PANC-1 cells” value in assay [6] is reported as 1.2–65.2 fold.
For PACAP27 [reference compound], the results for the IC50 in assay [1] and in assay [3] (read-out: IC50 PAC1-R) were 24.5 ± 1 nM and 2.82 ± 0.17 nM, respectively. For the same substance, the EC50 was 1 ± 0.04 nM in assay [2], 0.03 nM in assay [4], 0.79 ± 0.07 nM in assay [5] and 0.2 ± 0.01 nM in assay [6] (VPAC1-R/PANC-1 cells).
With “[Me-Asp^3,Aib^16,28,Lys^34,D-Lys^38]PACAP38 [Peptide P33]”, the “decrease in affinity for PAC1-R cells” value in assay [3] is 100–300 fold. Besides, in assay [4], the “higher potency for PAC1-R cells compared to VPAC1-R/PANC-1 cells” value was 16–50 fold and 15-to-666 fold; the “higher potency for PAC1-R cells compared to VPAC2-R/PANC-1 cells” value is 22–55 fold. In addition, in assay [7], the “decrease in affinity for VPAC1-R/PANC-1 cells compared to native PACAP38 (or PACAP27, VIP)” value is 30-to-100 fold.
Regarding [Pro^3]VIP [Peptide P50], in assay [1], the IC50 is over 1000 nM. For the same substance, the EC50 in assay [2] (VPAC2-R/PANC-1 cells) is 933 ± 21 nM; in assay [4] (PAC1-R cells), over 1000 nM; in assay [5], 468 ± 22 nM; in assay [6] (VPAC1-R/PANC-1 cells) it was 324 ± 32 nM.
On to “[Iac^1,Ala^16,17,D-Lys^38]PACAP38 [Peptide P29]”, for which, in assay [4], the “higher potency for PAC1-R cells compared to VPAC1-R/PANC-1 cells” value is reported as 16–50 fold and the “higher potency for PAC1-R cells compared to VPAC2-R/PANC-1 cells” value was 22–55 fold. Besides, in assay [7], the “decrease in affinity for VPAC1-R/PANC-1 cells compared to native PACAP38 (or PACAP27, VIP)” value was 3–20 fold.
As to [N-Ac-His^1,Pip^3]PACAP38 [Peptide P27], the IC50 in assay [1] turned out to be 87 ± 2 nM. For the same substance, the EC50 was over 1000 nM in assay [2] (VPAC2-R/PANC-1 cells), over 1000 nM in assay [4] (PAC1-R cells), over 1000 nM in assay [5] and 182 ± 9 nM in assay [6] (VPAC1-R/PANC-1 cells). Also, the “higher affinity (selectivity) for PAC1-R cells over VPAC2-R/PANC-1 cells” value in assay [3] (binding) is on record as “same affinity”. For the same substance, in assay [3], the “decrease in affinity for PAC1-R cells” value is on record as 100–300 fold. For the same substance, the “greater affinity than potency, PAC1-R cells” value in assay [4] (EC50 cAMP over binding IC50) was 1.2- to 64 fold. Besides, in assay [4] (PAC1-R cells), the “[3H]cAMP PAC1-R % max (agonist class)” value is given as “no agonist activity; also recorded: No Act”. Further, in assay [5] (at 1 µM), the “[3H]cAMP T47D % max, agonist activity at 1 µM, still increasing” value is “Ag (1 µM, 18) % max”. Also, the “[3H]cAMP T47D % max (agonist class)” value in assay [5] (relative to PACAP38, up to 1 µM) is listed as “Ag (1 µM, 18)”. Moreover, the “[3H]cAMP VPAC1-R/PANC-1 % max (agonist class)” value in assay [6] (VPAC1-R/PANC-1 cells, relative to PACAP38, up to 1 µM) was “Ag (1 µM, 72)”.
For “[N-Ac-His^1,Pip^3,Aib^16,Ala^17]PACAP27 [Peptide P8]”, the IC50 in assay [1] was over 1000 nM. Also, the EC50 in assay [2] (VPAC2-R/PANC-1 cells), in assay [4] (PAC1-R cells), in assay [5] and in assay [6] (VPAC1-R/PANC-1 cells) was over 1000 nM throughout. The “lower affinity for PAC1-R cells than VPAC1-R/PANC-1 cells” value in assay [3] (binding IC50 ratio) is on record as 6–10 fold. The “lower affinity for PAC1-R cells than VPAC2-R/PANC-1 cells” value in assay [3] (binding IC50 ratio, VPAC2-R preferring) is 2–9 fold. In addition, in assay [3], the “decrease in affinity for PAC1-R cells” value is reported as > 1,000 fold. In assay [4] (PAC1-R cells), the “[3H]cAMP PAC1-R % max (agonist class)” value is “no agonist activity; also recorded: No Act”. Moreover, the “greater affinity than potency for stimulating cAMP generation, VPAC1-R/PANC-1 cells” value in assay [6] is reported as 1.2–65.2 fold.
